Experimental data as given in ChEMBL document CHEMBL4422622, “Identification of Mineralocorticoid Receptor Modulators with Low Impact on Electrolyte Homeostasis but Maintained Organ Protection” (J Med Chem, 2019).

Tests used:
[1] = target: T1, Mineralocorticoid receptor (Homo sapiens, UniProt P08235)
T1 sequence (P08235 whole entry): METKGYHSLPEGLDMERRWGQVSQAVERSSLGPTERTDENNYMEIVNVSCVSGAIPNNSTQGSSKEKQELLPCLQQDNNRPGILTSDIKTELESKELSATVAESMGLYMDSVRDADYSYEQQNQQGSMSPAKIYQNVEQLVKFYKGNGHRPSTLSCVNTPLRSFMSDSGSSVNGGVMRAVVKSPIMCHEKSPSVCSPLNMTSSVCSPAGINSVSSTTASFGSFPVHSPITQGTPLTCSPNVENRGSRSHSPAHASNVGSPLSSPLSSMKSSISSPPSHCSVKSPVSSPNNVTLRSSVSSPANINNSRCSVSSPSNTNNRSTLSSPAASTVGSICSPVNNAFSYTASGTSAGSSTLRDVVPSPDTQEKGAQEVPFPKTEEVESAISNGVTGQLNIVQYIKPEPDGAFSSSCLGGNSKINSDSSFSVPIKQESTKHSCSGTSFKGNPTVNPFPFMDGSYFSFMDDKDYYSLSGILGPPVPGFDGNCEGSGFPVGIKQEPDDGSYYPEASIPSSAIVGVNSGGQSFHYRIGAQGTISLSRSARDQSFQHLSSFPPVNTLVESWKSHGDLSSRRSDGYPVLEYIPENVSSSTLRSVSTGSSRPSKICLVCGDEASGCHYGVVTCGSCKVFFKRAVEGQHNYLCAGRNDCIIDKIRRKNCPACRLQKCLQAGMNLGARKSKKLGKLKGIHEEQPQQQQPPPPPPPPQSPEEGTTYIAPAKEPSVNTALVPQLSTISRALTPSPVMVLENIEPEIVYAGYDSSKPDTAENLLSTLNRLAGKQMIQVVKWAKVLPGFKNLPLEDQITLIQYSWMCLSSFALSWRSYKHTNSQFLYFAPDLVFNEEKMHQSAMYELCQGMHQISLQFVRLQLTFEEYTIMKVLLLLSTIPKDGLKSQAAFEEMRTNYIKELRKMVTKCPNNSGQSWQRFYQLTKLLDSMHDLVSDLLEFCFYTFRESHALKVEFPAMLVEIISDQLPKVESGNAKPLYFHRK

[2] = target: T1, Mineralocorticoid receptor; remark: listed apart in the source
[3] = target: T1, Mineralocorticoid receptor; remark: listed apart in the source

EC50 [1]: 1 nM
IC50 [2]: 31.6 nM
Ki [3]: 3.16 nM
Structure (SMILES): CNC(=O)C[C@H]1COc2cc(Cl)ccc2N1C(=O)c1ccc2c(c1)NC(=O)CO2
